Test results from patent US10675284B2, “Treatment of B-cell malignancies by a combination JAK and PI3K inhibitors” (Incyte Corporation, priority 2014, dated 2020).

By UniProt entry, the sequences of proteins in these tests, tags left out. Where a name states a change or a piece, a line headed by the entry shows the natural chain unless it says otherwise.
UniProt P23458: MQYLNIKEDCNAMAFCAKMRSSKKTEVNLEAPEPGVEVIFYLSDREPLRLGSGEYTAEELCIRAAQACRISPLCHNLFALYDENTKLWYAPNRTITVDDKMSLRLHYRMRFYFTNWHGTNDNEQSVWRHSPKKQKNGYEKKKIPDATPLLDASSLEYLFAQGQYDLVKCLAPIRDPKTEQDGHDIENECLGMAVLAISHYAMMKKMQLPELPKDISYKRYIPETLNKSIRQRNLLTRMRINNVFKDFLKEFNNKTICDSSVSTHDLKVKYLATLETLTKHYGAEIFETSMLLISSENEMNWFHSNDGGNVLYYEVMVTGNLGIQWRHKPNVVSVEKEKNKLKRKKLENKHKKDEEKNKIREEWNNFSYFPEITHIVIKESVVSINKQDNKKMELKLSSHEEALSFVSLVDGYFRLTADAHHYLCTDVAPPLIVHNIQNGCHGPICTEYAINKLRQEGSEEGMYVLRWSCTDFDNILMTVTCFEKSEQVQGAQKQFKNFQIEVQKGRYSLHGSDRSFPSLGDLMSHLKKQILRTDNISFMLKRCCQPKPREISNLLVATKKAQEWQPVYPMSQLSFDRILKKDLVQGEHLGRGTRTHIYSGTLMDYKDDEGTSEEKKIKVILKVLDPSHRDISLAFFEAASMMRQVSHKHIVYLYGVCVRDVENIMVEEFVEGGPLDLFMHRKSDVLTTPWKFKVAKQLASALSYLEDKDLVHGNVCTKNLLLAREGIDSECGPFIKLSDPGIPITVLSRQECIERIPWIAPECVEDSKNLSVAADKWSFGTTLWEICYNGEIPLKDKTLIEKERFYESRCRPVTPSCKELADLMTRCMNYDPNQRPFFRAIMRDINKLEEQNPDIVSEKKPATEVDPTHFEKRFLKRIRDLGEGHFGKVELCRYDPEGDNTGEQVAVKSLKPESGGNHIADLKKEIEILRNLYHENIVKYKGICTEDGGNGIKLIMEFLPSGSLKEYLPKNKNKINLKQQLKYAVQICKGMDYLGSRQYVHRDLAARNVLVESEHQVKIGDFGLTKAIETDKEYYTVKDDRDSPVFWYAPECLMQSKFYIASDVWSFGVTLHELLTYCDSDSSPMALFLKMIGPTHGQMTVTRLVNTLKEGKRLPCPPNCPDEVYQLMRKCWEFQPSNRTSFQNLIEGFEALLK
UniProt O00329: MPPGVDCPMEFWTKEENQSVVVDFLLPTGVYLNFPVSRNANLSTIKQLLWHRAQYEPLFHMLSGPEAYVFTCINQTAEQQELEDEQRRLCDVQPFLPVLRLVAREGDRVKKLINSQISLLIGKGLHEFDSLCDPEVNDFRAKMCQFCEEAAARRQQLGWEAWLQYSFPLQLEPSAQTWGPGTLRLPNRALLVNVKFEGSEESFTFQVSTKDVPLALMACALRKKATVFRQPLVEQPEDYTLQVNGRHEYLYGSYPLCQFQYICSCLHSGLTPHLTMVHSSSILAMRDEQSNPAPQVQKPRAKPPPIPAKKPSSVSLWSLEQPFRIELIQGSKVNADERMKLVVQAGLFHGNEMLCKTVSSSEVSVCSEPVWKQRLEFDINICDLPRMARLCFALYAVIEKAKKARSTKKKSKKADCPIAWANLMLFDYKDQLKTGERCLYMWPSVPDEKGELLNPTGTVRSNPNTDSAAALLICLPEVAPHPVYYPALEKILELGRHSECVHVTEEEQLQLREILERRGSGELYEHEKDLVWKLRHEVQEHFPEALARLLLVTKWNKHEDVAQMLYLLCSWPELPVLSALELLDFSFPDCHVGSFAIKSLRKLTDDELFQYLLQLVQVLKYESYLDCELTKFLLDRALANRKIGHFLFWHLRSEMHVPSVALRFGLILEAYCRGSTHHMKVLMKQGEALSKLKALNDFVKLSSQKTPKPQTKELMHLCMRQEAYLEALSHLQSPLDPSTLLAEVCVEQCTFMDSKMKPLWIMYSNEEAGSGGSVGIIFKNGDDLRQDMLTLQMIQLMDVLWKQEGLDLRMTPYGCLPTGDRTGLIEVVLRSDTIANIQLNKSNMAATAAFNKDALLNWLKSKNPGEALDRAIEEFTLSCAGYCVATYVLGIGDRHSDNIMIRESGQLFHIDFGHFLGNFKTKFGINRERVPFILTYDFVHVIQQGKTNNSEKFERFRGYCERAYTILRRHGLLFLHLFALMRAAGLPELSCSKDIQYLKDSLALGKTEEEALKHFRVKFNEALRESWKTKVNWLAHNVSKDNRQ

Experiments:
[1] = molecular target: human JAK1 (a.a. 837-1142) (Homo sapiens, UniProt P23458); assay: In vitro JAK kinase assay (HTRF), JAK1; assay type: biochemical; conditions: 1 mM ATP
[2] = molecular target: PI3Kδ (p110δ/p85α) (Homo sapiens (Human), UniProt O00329); assay: PI3Kδ scintillation proximity assay; assay type: biochemical; conditions: 20 μM ATP
[3] = system: Pfeiffer cells; assay: Cell proliferation assay in Pfeiffer cells; assay type: cell-based, human; conditions: +IL-10 vs -IL-10

Row | IC50 [1] [nM] | SMILES | IC50 [2] [nM] | shift of potency by presence of IL-10 [3] [fold]
1 | < 10 | CN(C)Cc1cc(F)cc(OC2CCN(CC(CC#N)n3cc(-c4ncnc5[nH]ccc45)cn3)CC2)c1 (single isomer, unassigned) [Compound 14, 4-(4-{3-[(dimethylamino)methyl]-5-fluorophenoxy}piperidin-1-yl)-3-[4-(7H-pyrrolo[2,3-d]pyrimidin-4-yl)-1H-pyrazol-1-yl]butanenitrile] |  | 
2 |  | Cc1csc2nc(C(C)Nc3ncnc4[nH]cnc34)c(-c3cccc(F)c3)c(=O)n12 (stereo not shown) [Compound 27, 7-(1-(9H-purin-6-ylamino)ethyl)-6-(3-fluorophenyl)-3-methyl-5H-thiazolo[3,2-a]pyrimidin-5-one] | < 50 | 
3 |  | Cc1csc2nc([C@H](C)Nc3ncnc4[nH]cnc34)c(-c3cccc(F)c3)c(=O)n12 [Compound 28, (S)-7-(1-(9H-purin-6-ylamino)ethyl)-6-(3-fluorophenyl)-3-methyl-5H-thiazolo[3,2-a]pyrimidin-5-one] | < 50 | ~10
